The record followed here is publication PMC3111596 (Biochemistry, 2011).

The data set is classed as physicochemical. To be noted: 50 mM Tris-HCl pH 7.5, 100 mM NaCl, 35 mM β-mercaptoethanol.

Where only a bound is given, the exact number is not on record here.

For tetrahydrofolate [THF], the “Time protected from oxidation” value was no less than 6 h.
